Assay results taken from patent US10668162B2, “Method for preparing cell targeting conjugates, and the complexes obtained” (priority 2012, dated 2020).

Tested on: A431 cells
Assay: A431 cell viability (sulforhodamine B total cell number)
Type: cell-based
Conditions: highest concentration of 7 μM, FIG. 5.3B
Procedure: A431 cells were cultured in Dulbecco's Modified Eagle's medium (DMEM, PAA, Pasching, Austria) containing 3.7 g/l sodium bicarbonate, 4.5 g/l 1-glucose, 2 mM 1-glutamine and supplemented with 7.5% (v/v) fetal bovine serum, penicillin (100 IU/ml), streptomycin (100 μg/ml), and amphotericin B (0.25 μg/ml) at 37° C. in a humidified atmosphere containing 5% CO2. 4000 cells/well were seeded into 96-well plates. After 24 hours, medium was replaced by fresh medium spiked with DOX-LCL-antibody diluted in PBS in final concentrations of 25 nM−6.7 μM at least in triplicate. To determine the total cell number, cellular proteins were precipitated by the addition of trichloroacetic acid to 4% after 1 day of growth. Cells were washed with water, dried at RT and stained with 0.4% sulforhodamine B in 1% acetic acid for 30 minutes. Excess dye was washed away with 1% acetic acid and cells were dried at RT. Bound dye was extracted with unbuffered 10 mM Tris for 15 minutes and OD values were measured at 510 nm with a Bio-Rad Novapath Microplate Reader (Bio-Rad Laboratories, Veenendaal, The Netherlands).

DOX-LCL-trastuzumab
effect on A431 cell viability compared to unmodified trastuzumab: significant effect
